Test results published in US11077128B2, “Selective inhibitors of Alpha2-containing isoforms of Na,K-ATPase and use thereof for reduction of intraocular pressure” (Yeda Research and Development Co. Ltd., priority 2015, dated 2021).

Key:
Type in all cases: biochemical
[1] = target: human Na,K-ATPase α2β1FXYD1 (Homo sapiens, UniProt P50993)
[2] = tested on: human Na,K-ATPase α2β3FXYD1
[3] = target: human Na,K-ATPase α2β2FXYD1 (Homo sapiens (Human), UniProt P50993)

Row | Compound | Selectivity Ki ratio α1β1/α2β1 [1] | Selectivity Ki ratio α1β1/α2β3 [2] | Selectivity Ki ratio α1β1/α2β2 [3]
1 | CC1CN(CC2CC2)CCC(O[C@@H]2C(C)O[C@@H](OC3C(C)OC(O[C@H]4CC[C@@]5(C)C(CCC6C5CC[C@]5(C)[C@@H](C7=CC(=O)OC7)CC[C@]65O)C4)C[C@@H]3O)C[C@@H]2O)O1 (stereo in doubt) [DtxMcP, 4-((3S,5R,8R,9S,10S,13R,14S,17R)-3-(((2S,4S,5R,6R)-5-(((2S,4S,5S,6R)-5-((4-(cyclopropylmethyl)-2-methyl-1,4-oxazepan-7-yl)oxy)-4-hydroxy-6-methyltetrahydro-2H-pyran-2-yl)oxy)-4-hydroxy-6-methyltetrahydro-2H-pyran-2-yl)oxy)-14-hydroxy-10,13-dimethylhexadecahydro-1H-cyclopenta[a]phenanthren-17-yl)furan-2(5H)-one] | 5.9 | 6.7 | 4.6
2 | CC1CN(C2CCC2)CCC(O[C@@H]2C(C)O[C@@H](OC3C(C)OC(O[C@H]4CC[C@@]5(C)C(CCC6C5CC[C@]5(C)[C@@H](C7=CC(=O)OC7)CC[C@]65O)C4)C[C@@H]3O)C[C@@H]2O)O1 (stereo in doubt) [DtxcB, 4-((3S,5R,8R,9S,10S,13R,14S,17R)-3-(((2S,4S,5R,6R)-5-(((2S,4S,5S,6R)-5-((4-cyclobutyl-2-methyl-1,4-oxazepan-7-yl)oxy)-4-hydroxy-6-methyltetrahydro-2H-pyran-2-yl)oxy)-4-hydroxy-6-methyltetrahydro-2H-pyran-2-yl)oxy)-14-hydroxy-10,13-dimethylhexadecahydro-1H-cyclopenta[a]phenanthren-17-yl)furan-2(5H)-one] | 5.6 | 7.1 | 5.8
